Patent publication US20260384746A1, “NON-FREEZING REFRIGERATED STORAGE LIQUID FOR STEM CELLS” (published 2026)

How the values were obtained:
human iPS cells (253G1) [1] = assay: Cell death (LDH activity, Cytotoxicity LDH Assay Kit-WST) after refrigerated storage and 24 h recultivation; settings: for suppression of cell death after recultivation (in words): inhibitor added during 6 days refrigerated storage in HTMX(−) (FIG. 5B)
Procedure: (§1) A human iPS cell line (253G1) derived from a healthy individual obtained from the Center for iPS Cell Research and Application, Kyoto University, was maintained and cultured under feeder-free conditions. StemFit (registered trademark) AK02N (Ajinomoto), a commercially available clinical research medium (for human ES/iPS cells), was used for this culture, and subculture was performed at 1.5E3/cm^2 every 7 days. More details are as follows.
(§2) The iPS cells obtained as described above were enzymatically detached and dispersed (0.5× TrypLE (GIBCO)) at 70-80% confluence after seeding; then washed, and suspended in new StemFit™ AAK02N medium containing 10 μM Y27362 (FUJIFILM Wako); and iMatrix-511 (matrixome) was added to 0.1 g/cm^2, then seeded and cultured at a slightly lower concentration (1.0E3/cm^2) than that for maintenance culture. The next day, the medium was replaced with one not containing Y27362. […] After the storage period, the refrigerated storage liquid was removed by suction, and a specified amount of another iPS culture medium (StemFit™ AAK02) was added; and the colonies were cultured for 24 hours under 37 °C 5% CO2 conditions, and viability and cell death were measured. As controls, adopted were: the UW solution (UW) (Astellas Pharma), which is an organ preservation liquid; and HTS-FRS (HTS) (Sigma-Aldrich), which is a commercially available cell preservation liquid
The following base refrigerated storage liquid was prepared. For convenience, this storage liquid will be referred as “HTMX(−)”. […] Specifically, ZVAD-FMK (Peptide Institute), Necrostatin (ChemScene), Deferoxamine (Cayman Chemicals), Ferrostatin-1 (Cayman Chemicals), Edaravone (Sigma-Aldrich), Probucol (Tokyo Chemical Industry), Trolox (Cayman Chemicals), Deferasirox (Tokyo Chemical Industry), Deferiprone (SelleckBiotech), Ebselen (Tokyo Chemical Industry), and Idebenone (Tokyo Chemical Industry) were added to the preservation liquid or to the medium at the time of recultivation, and the survival percentage and cell death percentage were measured and evaluated.
The number of dead cells was measured by measuring lactate dehydrogenase (LDH) activity using Cytotoxicity LDH Assay Kit-WST (Dojin Chemical). […] After incubation at room temperature for 30 minutes, the absorbance at 490 nm was measured using a microplate reader; and the cell death percentage was calculated as a ratio to the positive control (total dead cells). […]

human iPS cells (253G1) [2] = assay: Cell viability (WST, Cell Counting Kit-8) after refrigerated storage at 4 °C and 24 h recultivation; settings: for Relative cell viability, mean: 4 °C, 6 days, HTMX(−)+2 mM Trolox = 1; for Relative cell viability, mean / viability as compared to 2 mM Trolox / protective effect / viability (in words): 24 h recultivation; for viability as compared to 2 mM Trolox / protective effect / viability (in words) / relative viability (in words): 6 days refrigerated storage; for viability as compared to 2 mM Trolox: at optimal concentration; for protective effect / viability (in words): versus Trolox-added group (2 mM); for increase of survival after 6 days of cold storage: 6 days cold storage; for 80% survival period: refrigerated storage up to 6 days (FIG. 13A); for relative viability (in words): 24 h recovery culture
Procedure: as §1
When the cells reached 70-80% confluence on the 7th day after the start of culture, they were enzymatically detached (using 0.5×TrypLE™ Select), dispersed, and washed. After this, the cells were suspended in fresh StemFit™ AK02N medium containing 10 μM Y27362 (FUJIFILM Wako Pure Chemical Industries, Ltd.) as a ROCK inhibitor, and iMatrix-511 (MATRIXOME, Inc.) was added as a further cell culture substrate at 0.1 g/cm^2′ and seeded at a concentration of 1.5E3/cm^2 (1.5×10^3/cm^2). The day after seeding, the medium was replaced with StemFit™ AK02N medium not containing Y27362; and thereafter the medium was replaced every 3 days, and on the 7th day, the cells were subcultured or used for experiments.
as §2
The following base refrigerated storage liquid was prepared. For convenience, this storage liquid will be referred as “HTMX(−)”. This has the same composition as “HTM” described in WO2021/090869A (Patent Document 1), but instead of the UW liquid in Table 2 below, the composition of below-mentioned modified UW liquid is used and Trolox is omitted. • HTMX(−): A modified UW liquid was prepared by omitting hydroxyethyl starch from the composition of the UW solution in Table 2 below and by including 90 mM mannitol and 0.25% polyvinyl alcohol. This modified UW solution was mixed with MEM-alpha (12571-MEMalpha, nucleosides, Thermo Fisher Scientific) in a volume ratio of 2/1. The polyvinyl alcohol (PVA) used here was Merck #363146 having: a saponification degree of 99%; a weight average molecular weight Mw of 85,000-124,000; and a rotational viscosity of a 4% aqueous solution at 20 °C as being 28-32 mPa/sec (28-32 cP, 4% in H2O (20 °C) (lit.)). Gluta MAX (registered trademark, GIBCO) was added to make a 5-fold concentration (×5; 10 mM). • “Trx2.0”: 2.0 mM Trolox was added to the above base refrigerated preservation liquid (“HTMX(−)”). […] Specifically, ZVAD-FMK (Peptide Institute), Necrostatin (ChemScene), Deferoxamine (Cayman Chemicals), Ferrostatin-1 (Cayman Chemicals), Edaravone (Sigma-Aldrich), Probucol (Tokyo Chemical Industry), Trolox (Cayman Chemicals), Deferasirox (Tokyo Chemical Industry), Deferiprone (SelleckBiotech), Ebselen (Tokyo Chemical Industry), and Idebenone (Tokyo Chemical Industry) were added to the preservation liquid or to the medium at the time of recultivation, and the survival percentage and cell death percentage were measured and evaluated.
Cell viability was measured by measuring intracellular dehydrogenase activity, by colorimetry using the WST method with Cell Counting Kit-8 (Dojin Chemical). […]

[3] = additive 100 μM (optimal concentration) in HTMX(−)
[4] = additive 1 μM (optimal concentration) in HTMX(−)
[5] = additive 1000 μM (optimal concentration) in HTMX(−)

Q: `CC(=O)N(O)CCCCCNC(=O)CCC(=O)N(O)CCCCCNC(=O)CCC(=O)N(O)CCCCCN` was tested. Which “suppression of cell death after recultivation (in words)” value (human iPS cells (253G1) [1]) did it give?
A: suppressed cell death to almost the same extent as when Trolox was added to HTMX(−)

Q: And the “Relative cell viability, mean” value (human iPS cells (253G1) [2]; additive 50 μM (optimal concentration) in HTMX(−))?
A: 1.29

Q: And the “viability as compared to 2 mM Trolox” value (human iPS cells (253G1) [2])?
A: 1.3 times

Q: What does the source list for `CC1=NN(c2ccccc2)C(=O)C1`?
A: Relative cell viability, mean (human iPS cells (253G1) [2]; [3]): 1.194; viability as compared to 2 mM Trolox (human iPS cells (253G1) [2]): about 1.2 times

Q: For `O=c1c2ccccc2[se]n1-c1ccccc1`, which “Relative cell viability, mean” value (human iPS cells (253G1) [2]; [4]) is on record?
A: 0.9914

Q: What about the “protective effect / viability (in words)” value (human iPS cells (253G1) [2]) of the same compound?
A: high viability comparable to Trolox

Q: What does the source list for `Cc1c(O)c(=O)ccn1C`?
A: Relative cell viability, mean (human iPS cells (253G1) [2]; [5]): 1.56; increase of survival after 6 days of cold storage (human iPS cells (253G1) [2]): not less than 1.5 times; viability as compared to 2 mM Trolox (human iPS cells (253G1) [2]): not less than 1.5 times

Q: How did the “Relative cell viability, mean” value (human iPS cells (253G1) [2]; [3]) turn out when `O=C(O)c1ccc(-n2nc(-c3ccccc3O)nc2-c2ccccc2O)cc1` was run?
A: 1.55

Q: And the “increase of survival after 6 days of cold storage” value (human iPS cells (253G1) [2])?
A: not less than 1.5 times

Q: What about the “viability as compared to 2 mM Trolox” value (human iPS cells (253G1) [2]) of the same compound?
A: not less than 1.5 times

Q: And the 80% survival period (human iPS cells (253G1) [2])?
A: 5 days

Q: Which results are given for `Cc1c(C)c2c(c(C)c1O)CCC(C)(C(=O)O)O2` (stereo not shown)?
A: Relative cell viability, mean (human iPS cells (253G1) [2]; additive 2 mM in HTMX(−)): 1; 80% survival period (human iPS cells (253G1) [2]): about 3 days

Q: How did the “Relative cell viability, mean” value (human iPS cells (253G1) [2]; [5]) turn out when `CC(C)(Sc1cc(C(C)(C)C)c(O)c(C(C)(C)C)c1)Sc1cc(C(C)(C)C)c(O)c(C(C)(C)C)c1` was run?
A: 1.263

Q: What about the “viability as compared to 2 mM Trolox” value (human iPS cells (253G1) [2]) of the same compound?
A: about 1.2 times

Q: For `OC[C@@H](O)[C@@H](O)[C@H](O)[C@@H](O)CO`, which “cell death (in words)” value (human iPS cells (253G1) [1]; 6 days refrigerated storage, 24 h recovery culture, diluted HTMX(−) + sorbitol 60-150 mM (FIG. 16B)) is on record?
A: tended to decrease with increasing amounts of added sorbitol

Q: What about the “relative viability (in words)” value (human iPS cells (253G1) [2]; 60 mM in HTMX(−) diluted 4/5, HTMX without agents = 1 (FIG. 15)) of the same compound?
A: higher viability than a group of HTMX having no added chemical agents, and the value was close to that of HTMX+Trolox

Q: And the “relative viability (in words)” value (human iPS cells (253G1) [2]; diluted HTMX(−) + sorbitol 60-150 mM, HTMX_Trx2K = 1 (FIG. 16A))?
A: viability improved as the amount of added sorbitol increased

Q: What does the source list for `COC(=O)C[C@H](NC(=O)[C@H](C)NC(=O)[C@@H](NC(=O)OCc1ccccc1)C(C)C)C(=O)CF`?
A: cell death (human iPS cells (253G1) [1]; 6 days refrigerated storage in HTMX(−), 1 day recultivation, inhibitor added during recultivation (FIG. 5A)): less than 10%; suppression of cell death after recultivation (in words) (human iPS cells (253G1) [1]): cell death after recultivation was not different from that of the control HTMX group

Q: Which “Relative cell viability, mean” value (human iPS cells (253G1) [2]; [4]) does the source give for `COC1=C(OC)C(=O)C(CCCCCCCCCCO)=C(C)C1=O` here?
A: 1.005

Q: What about the “protective effect / viability (in words)” value (human iPS cells (253G1) [2]) of the same compound?
A: high viability comparable to Trolox
